Measured values taken from US12187662B2, “FOXM1 inhibitor compositions and methods of using the same” (The Board of Trustees of the University of Illinois, priority 2018, dated 2025).
“And” between values parts separate entries of the source, which are not always exact repeats. Equal values may be shown once. Read-outs that look alike come from different tables or passages of the source.

Amino acid sequences for entries named in this document (tags omitted).
UniProt P03372, whole entry, species assumed: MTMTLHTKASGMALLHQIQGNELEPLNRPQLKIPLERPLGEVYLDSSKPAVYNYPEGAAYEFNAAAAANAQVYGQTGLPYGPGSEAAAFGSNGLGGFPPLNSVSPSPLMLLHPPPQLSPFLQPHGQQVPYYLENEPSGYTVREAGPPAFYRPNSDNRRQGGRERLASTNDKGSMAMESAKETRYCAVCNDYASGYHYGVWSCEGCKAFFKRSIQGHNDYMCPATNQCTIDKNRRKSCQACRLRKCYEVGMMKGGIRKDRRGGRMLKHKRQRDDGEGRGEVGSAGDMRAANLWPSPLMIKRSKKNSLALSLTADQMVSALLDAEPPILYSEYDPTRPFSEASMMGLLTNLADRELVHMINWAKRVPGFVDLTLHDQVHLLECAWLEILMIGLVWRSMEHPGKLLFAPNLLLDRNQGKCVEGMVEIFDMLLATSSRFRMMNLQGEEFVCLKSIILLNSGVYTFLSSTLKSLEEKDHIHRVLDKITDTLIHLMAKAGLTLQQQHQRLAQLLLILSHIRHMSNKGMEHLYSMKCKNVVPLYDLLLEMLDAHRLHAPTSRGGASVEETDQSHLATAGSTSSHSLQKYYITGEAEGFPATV

Key:
[1] = molecular target: estrogen receptor α (ERα) (Homo sapiens, UniProt P03372); assay: Relative binding affinity (RBA) for estrogen receptor α
[2] = Pharmacokinetic studies in mice after single s.c. or oral dose; conditions: for PK p.o. AUC0-48: 60 mg/kg p.o.
[3] = relative binding affinity, estradiol = 100

With “1-(6-(4-((Z)-((5S,7S)-adamantan-2-ylidene)(4-chlorophenyl)methyl)phenoxy)hexyl)-4-methylpiperazine [NB-64]” the “RBA ERα” value [1, 3] was 0.12.
In the case of `C[N+]1(CCCCCCOc2ccc(C(c3ccc(Cl)cc3)=C3C4C[C@H]5C[C@@H](C4)C[C@H]3C5)cc2)CCCC1` [NB-63], the “RBA ERα” value [1, 3] was 0.15.
With `CCN(CC)CCCCCCOc1ccc(C(=C2C3CC4CC(C3)CC2C4)c2ccc(O)cc2)cc1` [NB-41, 4-((E)-((5R,7R)-adamantan-2-ylidene)(4-((6-(diethylamino)hexyl)oxy)phenyl)methyl)phenol] the “RBA ERα” value [1, 3] was 82.
For `CN1CCN(CCCCCCOc2ccc(C(=C3C4CC5CC(C4)CC3C5)c3ccc(OCCCCCCN4CCN(C)CC4)cc3)cc2)CC1` [NB-66, 4,4′-((((((5r,7r)-adamantan-2-ylidene)methylene)bis(4,1-phenylene))bis(oxy))bis(hexane-6,1-diyl))bis(1-methylpiperazine)], the “RBA ERα” value [1, 3] was 0.05.
For “6-(4-((Z)-((5S,7S)-adamantan-2-ylidene)(4-chlorophenyl)methyl)phenoxy)-N,N-diethylhexan-1-amine [NB-54]”, the “RBA ERα” value [1] was 1.2 and 1.17.
For `c1cc(C(=C2C3CC4CC(C3)CC2C4)c2ccc(OCCCCCCN3CCCC3)cc2)ccc1OCCCCCCN1CCCC1` [NB-65, 1,1′-((((((5r,7r)-adamantan-2-ylidene)methylene)bis(4,1-phenylene))bis(oxy))bis(hexane-6,1-diyl))dipyrrolidine], the “PK p.o. AUC0-48” value [2] was “too low to measure” and the “RBA ERα” value [1, 3] was 0.05.
For `CCN(CC)CCCCCCOc1ccc(C(c2ccc(OCCCCCCN(CC)CC)cc2)=C2[C@H]3C[C@@H]4C[C@@H](C[C@H]2C4)C3)cc1` [NB-51, 6,6′-(((((5r,7r)-adamantan-2-ylidene)methylene)bis(4,1-phenylene))bis(oxy))bis(N,N-diethylhexan-1-amine)], the “RBA ERα” value [1, 3] was 0.21.
In the case of `C[n+]1ccn(CCCCCCOc2ccc(C(=C3C4CC5CC(C4)CC3C5)c3ccc(Cl)cc3)cc2)c1` [NB-62, 1-(6-(4-((Z)-((5S,7S)-adamantan-2-ylidene)(4-chlorophenyl)methyl)phenoxy)hexyl)-3-methyl-1H-imidazol-3-ium iodide], the “RBA ERα” value [1, 3] was 0.16.
For `C[N+]1(CCCCCCOc2ccc(C(=C3C4CC5CC(C4)CC3C5)c3ccc(OCCCCCC[N+]4(C)CCCC4)cc3)cc2)CCCC1` [NB-68, 1,1′-((((((5r,7r)-adamantan-2-ylidene)methylene)bis(4,1-phenylene))bis(oxy))bis(hexane-6,1-diyl))bis(1-methylpyrrolidin-1-ium) diiodide], the “RBA ERα” value [1, 3] was 0.05.
In the case of `CC[N+](C)(CC)CCCCCCOc1ccc(C(c2ccc(OCCCCCC[N+](C)(CC)CC)cc2)=C2C3C[C@H]4C[C@@H](C3)C[C@H]2C4)cc1` [NB-115, 6-(4-(((5r,7r)-adamantan-2-ylidene)(4-((6-(diethyl(methyl)-λ^4-azaneyl)hexyl)oxy)phenyl)methyl)phenoxy)-N,N-diethyl-N-methylhexan-1-aminium diiodide], the “PK p.o. AUC0-48” value [2] was “too low to measure”, the “Blood levels after oral administration” value ([2]; oral, doses of FIGS. 6A-6B) was “very low levels” and the “Blood levels after s.c. injection” value ([2]; s.c., doses of FIGS. 6A-6B) was “very high blood levels”.
In the case of `CCN(CC)CCOCCOCCOc1ccc(C(=C2C3CC4CC(C3)CC2C4)c2ccc(OCCOCCOCCN(CC)CC)cc2)cc1` [NB-53, 2,2′-(((((((((5r,7r)-adamantan-2-ylidene)methylene)bis(4,1-phenylene))bis(oxy))bis(ethane-2,1-diyl))bis(oxy))bis(ethane-2,1-diyl))bis(oxy))bis(N,N-diethylethan-1-amine)], the “RBA ERα” value [1, 3] was 0.15.
For `Clc1ccc(C(=C2C3CC4CC(C3)CC2C4)c2ccc(OCCCCCCN3CCCC3)cc2)cc1` [NB-55, 1-(6-(4-((-((Z)-((5S,7S)-Adamantan-2-ylidene)(4-chlorophenyl)methyl)phenoxy)hexyl)pyrrolidine], the “RBA ERα” value [1, 3] was 0.34.
